Test results: patent US12583945B2, “Synthesis of uniformly defined molecular weight mannosylated dextrans and derivatives thereof” (Navidea Biopharmaceuticals, Inc., priority 2020, dated 2026)

Biological target: T1, CD206 (Mus musculus, UniProt Q61830)
T1 construct: unobstructed access to the CD206 receptors expressed by these cells; from tissue; host or cells: Live Balb/c mice: liver Kupffer cells, large-intestine macrophages, and tumor-associated macrophages in CT26 syngeneic tumors
T1 sequence (Q61830 20-1456): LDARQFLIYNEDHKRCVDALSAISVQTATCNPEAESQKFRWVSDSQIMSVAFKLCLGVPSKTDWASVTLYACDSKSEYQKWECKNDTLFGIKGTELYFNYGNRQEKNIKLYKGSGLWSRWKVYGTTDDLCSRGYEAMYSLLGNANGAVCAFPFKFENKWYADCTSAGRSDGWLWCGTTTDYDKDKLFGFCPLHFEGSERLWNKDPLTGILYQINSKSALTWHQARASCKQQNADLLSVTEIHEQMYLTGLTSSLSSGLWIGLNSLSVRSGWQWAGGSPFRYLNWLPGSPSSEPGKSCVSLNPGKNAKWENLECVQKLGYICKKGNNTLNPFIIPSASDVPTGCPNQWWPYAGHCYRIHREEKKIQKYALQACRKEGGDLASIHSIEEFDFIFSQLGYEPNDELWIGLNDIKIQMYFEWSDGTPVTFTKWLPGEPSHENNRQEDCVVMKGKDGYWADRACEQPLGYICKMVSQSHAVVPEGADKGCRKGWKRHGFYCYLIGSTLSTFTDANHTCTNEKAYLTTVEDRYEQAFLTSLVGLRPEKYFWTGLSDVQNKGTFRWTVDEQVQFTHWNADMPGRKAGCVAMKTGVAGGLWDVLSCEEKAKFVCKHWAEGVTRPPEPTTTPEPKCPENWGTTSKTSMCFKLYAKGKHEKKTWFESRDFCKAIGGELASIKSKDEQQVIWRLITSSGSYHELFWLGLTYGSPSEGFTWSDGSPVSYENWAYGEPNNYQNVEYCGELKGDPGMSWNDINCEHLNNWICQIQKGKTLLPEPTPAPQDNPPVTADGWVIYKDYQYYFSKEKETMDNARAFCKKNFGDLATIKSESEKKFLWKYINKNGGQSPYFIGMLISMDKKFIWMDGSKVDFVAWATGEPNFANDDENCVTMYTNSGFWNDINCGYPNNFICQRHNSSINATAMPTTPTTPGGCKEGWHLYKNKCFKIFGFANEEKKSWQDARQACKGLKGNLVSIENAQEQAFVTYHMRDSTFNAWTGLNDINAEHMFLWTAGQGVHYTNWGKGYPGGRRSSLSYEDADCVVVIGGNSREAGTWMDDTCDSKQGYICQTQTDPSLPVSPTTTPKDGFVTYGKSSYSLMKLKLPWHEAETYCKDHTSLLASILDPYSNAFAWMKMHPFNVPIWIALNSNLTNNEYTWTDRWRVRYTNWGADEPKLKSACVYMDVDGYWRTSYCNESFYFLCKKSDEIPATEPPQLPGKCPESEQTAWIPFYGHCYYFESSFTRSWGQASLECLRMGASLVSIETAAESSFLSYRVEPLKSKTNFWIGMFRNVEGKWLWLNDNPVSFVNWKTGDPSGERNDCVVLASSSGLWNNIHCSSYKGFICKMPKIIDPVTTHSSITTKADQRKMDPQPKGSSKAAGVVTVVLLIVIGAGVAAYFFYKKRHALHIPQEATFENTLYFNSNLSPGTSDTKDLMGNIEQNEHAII
Test: Organ and tumor localization (PET/CT or SPECT/CT) of radiolabeled mannosylated dextrans in tumor-bearing mice
Assay type: in vivo
Settings: IV injection, Balb/c mice with CT26 syngeneic tumors, imaged approximately 1 hour after injection; comparison between the two constructs
Description: A mannosylated dextran construct carrying a DOTA chelator was synthesized according to the presently disclosed methods starting with a 3.5 kDa dextran backbone. […] This construct was labeled with [68]Ga. Tilmanocept (10 kDa dextran backbone carrying a DTPA chelator) was prepared by the method described in the 990 patent. […] Tilmanocept was labeled with [99m]Tc. These constructs were injected intravenously (IV) into Babl/c mice that had been implanted with CT27 syngeneic tumors. Syngeneic tumors contain numerous CD206+ tumor associated macrophages (TAMs). In addition, CD206+ macrophages occur normally in most tissues of the body including the large intestine. The liver contains large numbers of macrophage-like CD206+ Kupffer cells which are exposed directly to the blood flow providing the injected mannosylated dextrans with unobstructed access to the CD206 receptors expressed by these cells. In most tissues and in tumors, mannosylated dextrans must exit the blood flow and penetrate into the tissues or tumors to encounter CD206 expressing cells (mostly macrophages), Four animals were injected with each labeled construct. […] A: a non-crosslinked mannosylated dextran construct with a DOTA chelator built on 3.5 kDa dextran backbone and labeled with [68]Ga (calculated Mw=8.7 kDa). B: Tilmanocept (10 kDa dextran backbone) with a DTPA chelator labeled with [99m]Tc (measured Mw=37.5 kDa).

## dextran 3-[(2-aminoethyl)thio]propyl 17-carboxy-10,13,16-tris(carboxymethyl)-8-oxo-4-thia-7,10,13,16-tetraazaheptadec-1-yl 3-[[2-[[1-imino-2-(D-mannopyranosylthio)ethyl]amino]ethyl]thio]propyl ether complexes [Tilmanocept]
  % ID/g that had localized to the liver: nearly the same
